# Target: M. tuberculosis gyrase (GyrA/GyrB) (Mycobacterium tuberculosis, UniProt P9WG45+P9WG47)
# The chains behind the UniProt entries cited, without tags or fusion partners. Where a name states a change or a piece, a line headed by the entry shows the natural chain unless it says otherwise. Residues count along the entry.
# UniProt P9WG45: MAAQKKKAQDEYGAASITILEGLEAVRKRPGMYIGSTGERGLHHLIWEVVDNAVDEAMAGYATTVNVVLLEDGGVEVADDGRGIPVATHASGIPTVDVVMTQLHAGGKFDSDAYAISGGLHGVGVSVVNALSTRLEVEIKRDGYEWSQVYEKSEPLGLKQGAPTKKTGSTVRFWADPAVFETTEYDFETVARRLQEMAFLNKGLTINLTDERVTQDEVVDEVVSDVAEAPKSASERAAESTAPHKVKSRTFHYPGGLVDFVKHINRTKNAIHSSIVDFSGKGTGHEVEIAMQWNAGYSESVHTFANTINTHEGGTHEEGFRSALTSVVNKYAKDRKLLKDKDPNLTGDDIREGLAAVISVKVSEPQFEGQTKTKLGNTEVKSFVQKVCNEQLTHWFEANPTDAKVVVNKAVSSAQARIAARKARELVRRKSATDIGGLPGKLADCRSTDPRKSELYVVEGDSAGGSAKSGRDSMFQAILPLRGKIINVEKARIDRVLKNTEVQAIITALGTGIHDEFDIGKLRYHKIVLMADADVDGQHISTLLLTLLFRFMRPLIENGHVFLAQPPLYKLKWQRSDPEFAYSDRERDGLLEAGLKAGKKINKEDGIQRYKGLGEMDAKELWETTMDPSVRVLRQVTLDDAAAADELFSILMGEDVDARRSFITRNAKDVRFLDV
# UniProt P9WG47, 2-838: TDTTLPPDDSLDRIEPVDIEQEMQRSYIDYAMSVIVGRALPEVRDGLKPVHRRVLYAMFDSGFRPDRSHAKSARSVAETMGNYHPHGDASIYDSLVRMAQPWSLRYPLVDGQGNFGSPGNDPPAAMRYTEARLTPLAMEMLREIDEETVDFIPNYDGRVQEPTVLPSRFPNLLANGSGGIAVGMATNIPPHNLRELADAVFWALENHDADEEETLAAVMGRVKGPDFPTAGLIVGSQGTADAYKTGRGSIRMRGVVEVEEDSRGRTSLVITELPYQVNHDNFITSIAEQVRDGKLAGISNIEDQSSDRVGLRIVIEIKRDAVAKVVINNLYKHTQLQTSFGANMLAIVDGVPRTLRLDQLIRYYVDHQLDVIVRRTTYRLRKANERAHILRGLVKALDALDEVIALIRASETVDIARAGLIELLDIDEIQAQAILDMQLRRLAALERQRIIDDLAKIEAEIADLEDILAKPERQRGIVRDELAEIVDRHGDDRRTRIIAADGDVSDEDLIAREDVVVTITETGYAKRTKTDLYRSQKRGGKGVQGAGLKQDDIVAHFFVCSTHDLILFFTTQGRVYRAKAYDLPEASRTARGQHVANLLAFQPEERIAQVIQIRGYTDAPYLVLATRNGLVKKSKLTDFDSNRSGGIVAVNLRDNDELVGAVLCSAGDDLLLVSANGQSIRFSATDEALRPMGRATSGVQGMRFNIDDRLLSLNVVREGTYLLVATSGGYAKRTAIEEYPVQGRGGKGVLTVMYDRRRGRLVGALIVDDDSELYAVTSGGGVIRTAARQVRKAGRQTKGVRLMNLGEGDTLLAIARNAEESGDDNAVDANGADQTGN
row,SMILES,DNA cleavage assay with purified gyrase
1,"C[C@@H]1CN2c3c(cc4c(N5CC[C@H](O)C5)noc4c3F)CC3(C(=O)NC(=O)NC3=O)[C@H]2[C@H](C)O1 [compound 4882, H3D-004882]","The related SPTs, H3D-004882 and H3D-005709 (which differ at the R2 position), also induced gyrase-mediated DNA cleavage."
2,"C[C@@H]1CN2c3c(cc4c(N5CC[C@H](O)C5)noc4c3F)CC3(C(=O)NC(=O)NC3=O)[C@H]2[C@H](C)N1C#N [compound 4912, H3D-004912]","In both cases, the presence of the amino-cyano group enhanced the activity of the parent compound"
3,"C[C@@H]1CN2c3c(cc4c(OCCCO)noc4c3F)CC3(C(=O)NC(=O)NC3=O)[C@H]2[C@H](C)O1 [compound 5709, H3D-005709]","The related SPTs, H3D-004882 and H3D-005709 (which differ at the R2 position), also induced gyrase-mediated DNA cleavage."

# From PMC10006343 (ACS Infectious Diseases, 2023)
